The data set concerns Nc1ncnc2c1ncn2[C@@H]1O[C@H](COP(=O)(O)OP(=O)(O)OP(=O)(O)O)[C@@H](O)[C@H]1O. The data set is described as follows: purified protein. Particulars: 50 mM Tris-HCl pH 8.0, 300 mM NaCl, 5 mM MgCl2, 298 K, 2.5 μM protein, 25.0 °C.

In the case of “HutD (Vibrio cholerae O1 biovar El Tor str. N16961)”, the Km was determined as 74.15 ± 9.46 µM.

Source of the values: paper PMC9065009, “Mechanistic insights of ABC importer HutCD involved in heme internalization by Vibrio cholerae” (Scientific Reports, 2022).
